scFv variants of Ab-14 (heavy chain) against a SARS-CoV-2 spike peptide

Reference: Li et al. 2023, doi:10.1038/s41467-023-39022-2. File: FLAb, binding data.

Binding partner: SARS-CoV-2 spike HR2 peptide, sequence PDVDLGDISGINAS.

Parent scFv Ab-14: VH joined to VL by a 15-residue (Gly4Ser)3 linker. Changes lie in the heavy chain CDRs alone.
VH: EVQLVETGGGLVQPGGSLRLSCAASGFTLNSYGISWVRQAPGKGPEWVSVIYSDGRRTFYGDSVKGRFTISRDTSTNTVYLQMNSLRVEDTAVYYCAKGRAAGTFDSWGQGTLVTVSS
VL: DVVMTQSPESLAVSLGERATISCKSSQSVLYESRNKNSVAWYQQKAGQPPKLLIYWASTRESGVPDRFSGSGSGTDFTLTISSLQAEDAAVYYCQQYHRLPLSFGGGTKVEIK

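The starting antibody came from a phage panning campaign against this peptide. This is the validation round: designs drawn from the data on random variants, tested in the same kind of assay. Their group label is 14H_GP_Gibbs (GP: Gaussian process model; Gibbs: Gibbs sampling; a sequence that several methods proposed may carry one label only). The scFvs were displayed on barcoded MATa yeast, the peptide on MATalpha yeast. After mating in shaken culture at 30 °C for 16 h, diploids were selected and their barcode pairs sequenced. A regression on co-assayed BCL2-family reference pairs converts the normalised counts of each replicate to an apparent Kd. There are six technical replicates.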

Each variant is given by its three heavy chain CDRs, as the data file delimits them; those of the parent are GFTLNSYGIS, VIYSDGRRTFYGDSVK, GRAAGTFDS.
Values are log10 of the apparent Kd in nM; lower means stronger binding.
"nd" means that the variant was in the library but no mating with the target was seen in that replicate; the authors take this as a sign of poor binding, and no number exists.

GFTLNEYGIS, VIYSDGRRTFYGDRVK, GRTAGTFVS: nd, 1.90, 2.69, nd, nd, nd (controls 0 of 18).
GKTLNSYGIS, VIYSDGRRTFYSDSVK, GQTAGTFDS: 0.67, 0.76, 0.62, 0.38, 1.07, 0.21 (controls 0 of 18).
GFNLNSYGIS, VIYSDGRRTFYKDSVK, GMTAGTFDS: 2.10, 1.02, 1.50, 0.02, 0.58, 1.48 (controls 0 of 18).
GFSLNSYGIS, VIYSDGRRTFYKDSVK, GRYAGTFDS: nd, -0.02, nd, 1.64, 0.44, nd (controls 1 of 18).
GFSLNSYGIS, VIYSDGRRTAYCDSVK, GKAAGTFDS: 0.06, 0.11, 0.44, 0.17, 0.08, 0.14 (controls 1 of 18).
GFALNSYGIS, VIYSDGRRTFYQDSVK, GQAAGTFDS: 1.07, 1.29, 1.81, 1.54, 1.44, 1.25 (controls 0 of 18).
GFSLNEYGIS, VIYSDGRRTMYSDSVK, GRTAGTFDS: -0.36, -0.25, -0.48, -0.52, -0.47, -0.06 (controls 0 of 18).
GFELNSYGIS, VIYSDGRRTFYIDSVK, GKTAGTFDA: 0.26, 0.38, 0.96, 0.62, 1.16, 1.06 (controls 0 of 18).
GFTLNSYGIS, VIYADGRRTFYGDQVK, GRVAGTFDS: 1.05, 0.26, 0.52, 0.60, 0.30, 0.30 (controls 0 of 18).
GFTLNEYGIS, VIYADGRRTFYGDSVK, GRAAGTFDT: -0.50, -0.50, -0.60, -0.92, -0.78, -0.67 (controls 0 of 18).
GFTLESYGIS, VIYSDGMRTFYKDSVK, GRTAGTFDS: nd, 1.91, nd, 1.56, 1.16, 0.99 (controls 0 of 18).
KFSLNQYGIS, VIYSDGRRTFYGDSVK, GQAAGTFDS: nd, nd, nd, nd, nd, nd (controls 0 of 18).
KFSLNWYGIS, VIYSDGRRTFYHDSVK, GRTAGTFDS: nd, 1.39, 0.18, 0.38, 0.25, 0.71 (controls 1 of 18).
GFDLNSYGIS, VIYSDGRRTFYVDQVK, GQAAGTFDS: nd, nd, nd, nd, nd, nd (controls 0 of 18).
GFELNSYGIS, VIYSDGRRTFYGDSVK, GTTAGTFDV: 0.68, 0.87, 0.09, 0.06, 0.10, 0.10 (controls 0 of 18).
GFDLNSYGIS, VIYADGRRWFYGDSVK, GRAAGTFDS: nd, nd, nd, nd, nd, nd (controls 0 of 18).
GFNLNSYGIS, VIYSDGRRTFYVDDVK, GRQAGTFDT: 0.83, 0.50, 0.88, 0.81, 0.94, 0.95 (controls 0 of 18).
GFDLNTYGIS, VIYSDGRRTFYADSVK, GREAGTFDS: -0.07, -0.12, 0.09, -0.08, -0.26, 0.24 (controls 0 of 18).
MFDLNSYGIS, VIYSDGRRTFYGDSVK, GQIAGTFDS: -0.65, -0.48, 1.11, 0.41, -0.34, -0.12 (controls 0 of 18).
GFNLNSYGIS, VIYSDGRRTFYVDDVK, GRLAGTFDT: nd, 0.94, nd, 1.45, 1.06, 1.20 (controls 0 of 18).
GFSLNSYGIS, VIYSDGRRTFYADSVK, GKNAGTFDT: 0.17, -0.15, 0.40, 0.01, -0.22, 0.23 (controls 0 of 18).
GFSLNSYGIS, VIYSDGRRTFYGDNVK, GQAAGTFDL: 1.04, 0.93, 0.80, 0.80, 0.66, 0.95 (controls 0 of 18).
GFKLNSYGIS, VIYSDGRRTFYIDSVK, GRNAGTFDS: nd, nd, nd, nd, nd, nd (controls 0 of 18).
GFELNSYGIS, VIYADGRRTFYIDSVK, GKAAGTFDS: 0.21, 0.14, 0.31, 0.00, 0.00, 0.06 (controls 0 of 18).
GFLLNEYGIS, VIYSDGRRTFYGDQVK, GRTAGTFDS: 0.46, -0.11, 0.69, 0.39, 0.42, 0.22 (controls 0 of 18).
GFQLNDYGIS, VIYSDGRRTFYQDSVK, GRTAGTFDS: 0.10, 0.00, -0.24, -0.06, 0.02, -0.15 (controls 0 of 18).
GFPLNDYGIS, VIYSDGRRTFYGDSVK, GRTAGTFDA: 1.14, 0.46, 0.96, 0.41, 1.13, 0.53 (controls 0 of 18).
GFTLNSYGIS, VIYSDGRRTFYGDGVK, GNEAGTFDT: 1.08, nd, 1.81, nd, -0.08, 0.29 (controls 0 of 18).
GFNLNSYGIS, VIYSDGRRTFYQDRVK, GQAAGTFDS: nd, nd, nd, nd, 2.60, 2.72 (controls 0 of 18).
GFQLNEYGIS, VIYSDGRRTFYGDSVK, GQTAGTFDL: 0.20, -0.02, -0.18, -0.23, 0.04, 0.29 (controls 1 of 18).
GFTLNSYGIS, VIYSDGMRTFYGDSVK, GRTAGTFWS: nd, nd, nd, nd, nd, nd (controls 0 of 18).
GFTLNSYGIS, VIYSDGKRTFYGDDVK, GRVAGTFDV: 1.00, 1.17, nd, 0.48, 0.83, 0.83 (controls 0 of 18).
GFHLNSYGIS, VIYSDGRRTFYVDSVK, GKAAGTFDS: nd, nd, nd, nd, nd, nd (controls 0 of 18).
GFSLNEYGIS, VIYSDGRRTFYGDSVK, GRMAGTFDK: 0.06, 0.20, 0.31, 0.22, -0.09, 0.43 (controls 0 of 18).
GFTLESYGIS, VIYSDGKRTFYIDSVK, GRAAGTFDS: nd, 1.61, 2.18, nd, 3.39, 2.05 (controls 0 of 18).
YFSLNDYGIS, VIYSDGRRTFYGDSVK, GRTAGTFDT: 0.94, 1.25, 0.34, 1.22, 0.38, 2.72 (controls 0 of 18).

Excerpt, the first 5 entries:

| CDR-H1 | CDR-H2 | CDR-H3 | log10 Kd, replicates | empty controls |
|---|---|---|---|---|
| GFTLNEYGIS | VIYSDGRRTFYGDRVK | GRTAGTFVS | nd, 1.90, 2.69, nd, nd, nd | 0/18 |
| GKTLNSYGIS | VIYSDGRRTFYSDSVK | GQTAGTFDS | 0.67, 0.76, 0.62, 0.38, 1.07, 0.21 | 0/18 |
| GFNLNSYGIS | VIYSDGRRTFYKDSVK | GMTAGTFDS | 2.10, 1.02, 1.50, 0.02, 0.58, 1.48 | 0/18 |
| GFSLNSYGIS | VIYSDGRRTFYKDSVK | GRYAGTFDS | nd, -0.02, nd, 1.64, 0.44, nd | 1/18 |
| GFSLNSYGIS | VIYSDGRRTAYCDSVK | GKAAGTFDS | 0.06, 0.11, 0.44, 0.17, 0.08, 0.14 | 1/18 |

In the paper, a design with two or fewer of six values counts as a poor binder.
As a blank, each scFv also met three strains without target: over all heavy chain designs, 1% of these pairings were detected, typically at 2.08 and seldom below 0.84. Also given: how often the same scFv was detected with the empty control strains.
The parent sequence was in this pool as ten entries: three were never detected, three once, and four in most replicates, with averages from 0.34 to 2.37.
The range of this assay differs from that of the first round, and the authors advise against merging the two.